In ChEMBL document CHEMBL1132136, “Ring constrained analogues of the orvinols: the furanomorphides” (1999):

What was measured:
Cavia porcellus [1] = organism: Cavia porcellus; assay: Agonistic activity in electrically stimulated guinea pig ileum preparation (GPI)
Cavia porcellus [2] = organism: Cavia porcellus; assay: Agonistic activity in electrically stimulated guinea pig ileum preparation (GPI) in presence of mu-selective antagonist CTAP

**Q.** How did the pIC50 (Cavia porcellus [1]) turn out when CC1(C)OC23CCC4(CC2C1(C)C)C1Cc2ccc(O)c5c2C4(CCN1CC1CC1)C3O5 (stereo not drawn) was run?
**A.** The pIC50 was 7.28.

**Q.** With CO[C@@]12CC[C@@]3(C[C@@H]1[C@](C)(O)C(C)(C)C)[C@H]1Cc4ccc(O)c5c4[C@@]3(CCN1CC1CC1)[C@H]2O5 as the molecule, how does the pIC50 (Cavia porcellus [1]) read?
**A.** The pIC50 was 8.09.

**Q.** Which Ke (Cavia porcellus [2]) does the source give for C[C@@H](NC(=O)[C@@H](N)Cc1ccc(O)cc1)C(=O)NCC(=O)N(C)[C@@H](Cc1ccccc1)C(=O)NCCO here?
**A.** Its Ke is 25.3 nM.

pIC50: −log10 of the molar value.
